We go through one compound from BindingDB's records for doi:10.1016/j.bmc.2010.05.001 (St. Jude Children'S Research Hospital, 2011).

This test addresses T1, Zinc finger protein GLI1 (Homo sapiens, UniProt P08151).
T1 sequence (P08151 whole entry): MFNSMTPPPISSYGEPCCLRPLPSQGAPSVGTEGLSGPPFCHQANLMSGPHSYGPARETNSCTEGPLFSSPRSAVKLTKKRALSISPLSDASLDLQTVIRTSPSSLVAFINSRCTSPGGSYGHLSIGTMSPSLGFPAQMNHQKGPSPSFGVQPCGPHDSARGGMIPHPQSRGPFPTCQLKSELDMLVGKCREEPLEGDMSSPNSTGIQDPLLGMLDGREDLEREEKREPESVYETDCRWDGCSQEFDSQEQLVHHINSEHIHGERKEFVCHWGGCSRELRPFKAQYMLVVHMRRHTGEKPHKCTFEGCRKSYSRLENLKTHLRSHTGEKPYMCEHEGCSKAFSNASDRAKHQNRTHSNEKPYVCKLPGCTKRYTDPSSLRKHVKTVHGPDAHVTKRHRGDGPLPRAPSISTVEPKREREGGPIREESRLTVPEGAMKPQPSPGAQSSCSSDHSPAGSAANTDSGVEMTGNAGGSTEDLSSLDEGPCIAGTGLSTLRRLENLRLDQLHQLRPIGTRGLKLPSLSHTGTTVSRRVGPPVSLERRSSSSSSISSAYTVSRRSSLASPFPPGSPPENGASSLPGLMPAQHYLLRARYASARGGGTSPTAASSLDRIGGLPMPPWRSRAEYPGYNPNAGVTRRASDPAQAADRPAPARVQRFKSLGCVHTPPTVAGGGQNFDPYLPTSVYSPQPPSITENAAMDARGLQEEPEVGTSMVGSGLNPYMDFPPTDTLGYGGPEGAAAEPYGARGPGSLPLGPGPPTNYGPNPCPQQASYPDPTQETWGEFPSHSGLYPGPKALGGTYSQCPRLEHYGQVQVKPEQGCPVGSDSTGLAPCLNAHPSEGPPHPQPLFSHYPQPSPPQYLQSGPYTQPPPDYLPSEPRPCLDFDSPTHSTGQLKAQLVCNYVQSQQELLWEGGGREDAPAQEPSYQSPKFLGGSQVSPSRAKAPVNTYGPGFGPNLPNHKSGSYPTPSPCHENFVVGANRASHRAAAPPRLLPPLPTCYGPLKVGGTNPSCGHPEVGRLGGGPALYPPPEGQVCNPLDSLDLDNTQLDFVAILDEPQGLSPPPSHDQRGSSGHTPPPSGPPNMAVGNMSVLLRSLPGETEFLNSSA
Briefly: Inhibition of human Gli1 expressed in mouse C3H10T1/2 cells assessed as inhibition of transcriptional activity after 24 hrs by luciferase reporter gene assay. Put shortly: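 C3H10T1/2 cells transiently transfected overnight with GliLuc-BS, pRL-TK Renilla control and human Gli1 (or mouse Gli2 for Gli2 lines), 250 ng/mL each for the Gli plasmids. Cells replated in 96-well plates, then exposed to compound in BME/10% FBS for 24 h at 37 °C. Firefly/Renilla dual-luciferase ratio normalized to DMSO, triplicates. Dose–response IC50 from curve fitting.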

As a reminder, the IC50 is the point on the concentration scale where inhibition reaches its midpoint. With `CCCN(C(=O)C(C)c1cccc(C(=O)c2ccccc2)c1)c1ccc2cc[nH]c2c1` (stereo unspecified) [2-(3-Benzoylphenyl)-N-(1H-indol-6-yl)-N-propylpropanamide], the IC50 was determined as 2.6 µM.
